Experimental data: patent publication US7235366B1, “Methods of identifying agonists and antagonists of opioid receptors” (priority 1993, dated 2007)

Chains of the proteins cited; added tags and fusions are not shown. Lines headed by an entry give the natural chain unless they say otherwise; changes in a name come on top.
UniProt P33534: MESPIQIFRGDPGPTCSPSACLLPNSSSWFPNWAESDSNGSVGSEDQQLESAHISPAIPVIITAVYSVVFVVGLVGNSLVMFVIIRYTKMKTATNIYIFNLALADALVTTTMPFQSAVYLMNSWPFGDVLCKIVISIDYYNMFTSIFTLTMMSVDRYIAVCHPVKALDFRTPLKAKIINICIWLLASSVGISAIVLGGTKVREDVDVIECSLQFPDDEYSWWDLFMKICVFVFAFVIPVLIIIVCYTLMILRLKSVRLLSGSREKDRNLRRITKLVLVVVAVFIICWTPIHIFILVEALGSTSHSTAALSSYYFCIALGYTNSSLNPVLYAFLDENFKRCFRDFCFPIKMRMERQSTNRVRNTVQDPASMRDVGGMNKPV
UniProt P32300, whole entry, looked up: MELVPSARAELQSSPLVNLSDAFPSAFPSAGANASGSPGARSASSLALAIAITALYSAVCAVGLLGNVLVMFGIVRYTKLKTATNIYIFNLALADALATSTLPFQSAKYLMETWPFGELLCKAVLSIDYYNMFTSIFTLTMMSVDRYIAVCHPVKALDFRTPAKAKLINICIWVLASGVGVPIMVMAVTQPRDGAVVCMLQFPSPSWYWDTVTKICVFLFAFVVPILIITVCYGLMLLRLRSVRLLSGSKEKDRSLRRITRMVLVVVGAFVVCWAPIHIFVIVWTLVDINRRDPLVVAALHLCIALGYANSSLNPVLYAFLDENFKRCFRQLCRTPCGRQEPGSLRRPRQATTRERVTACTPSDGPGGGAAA
UniProt P32300, whole entry D128N, looked up: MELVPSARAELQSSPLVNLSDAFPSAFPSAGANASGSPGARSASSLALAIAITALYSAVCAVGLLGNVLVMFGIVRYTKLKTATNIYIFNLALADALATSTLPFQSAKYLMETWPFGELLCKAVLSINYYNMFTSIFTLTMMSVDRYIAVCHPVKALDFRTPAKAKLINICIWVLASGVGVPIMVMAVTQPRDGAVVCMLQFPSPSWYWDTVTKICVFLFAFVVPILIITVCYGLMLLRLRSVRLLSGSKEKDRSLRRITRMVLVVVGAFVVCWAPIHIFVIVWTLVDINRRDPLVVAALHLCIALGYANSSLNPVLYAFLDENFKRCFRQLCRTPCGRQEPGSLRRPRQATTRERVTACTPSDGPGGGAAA
UniProt P32300, whole entry H278N, looked up: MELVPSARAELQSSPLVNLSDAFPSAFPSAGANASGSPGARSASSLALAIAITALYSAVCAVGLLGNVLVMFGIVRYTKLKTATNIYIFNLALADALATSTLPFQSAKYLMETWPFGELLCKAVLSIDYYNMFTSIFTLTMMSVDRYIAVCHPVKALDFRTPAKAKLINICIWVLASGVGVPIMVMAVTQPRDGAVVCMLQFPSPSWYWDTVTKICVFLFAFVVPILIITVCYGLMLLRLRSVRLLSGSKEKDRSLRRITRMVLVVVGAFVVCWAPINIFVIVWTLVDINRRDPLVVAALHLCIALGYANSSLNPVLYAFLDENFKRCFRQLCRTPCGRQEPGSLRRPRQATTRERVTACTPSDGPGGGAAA
UniProt P33535, whole entry, looked up: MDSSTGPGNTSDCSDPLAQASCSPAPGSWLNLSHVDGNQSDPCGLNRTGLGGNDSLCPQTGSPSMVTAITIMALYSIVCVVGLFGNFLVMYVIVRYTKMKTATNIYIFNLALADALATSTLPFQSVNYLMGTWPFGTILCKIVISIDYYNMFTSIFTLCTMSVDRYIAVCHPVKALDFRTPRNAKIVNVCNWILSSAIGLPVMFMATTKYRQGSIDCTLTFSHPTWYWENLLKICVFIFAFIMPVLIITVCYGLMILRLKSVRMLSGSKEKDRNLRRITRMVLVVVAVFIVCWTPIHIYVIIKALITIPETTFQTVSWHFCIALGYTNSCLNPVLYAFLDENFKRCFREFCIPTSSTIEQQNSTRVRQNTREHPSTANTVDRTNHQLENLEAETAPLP
UniProt P35377: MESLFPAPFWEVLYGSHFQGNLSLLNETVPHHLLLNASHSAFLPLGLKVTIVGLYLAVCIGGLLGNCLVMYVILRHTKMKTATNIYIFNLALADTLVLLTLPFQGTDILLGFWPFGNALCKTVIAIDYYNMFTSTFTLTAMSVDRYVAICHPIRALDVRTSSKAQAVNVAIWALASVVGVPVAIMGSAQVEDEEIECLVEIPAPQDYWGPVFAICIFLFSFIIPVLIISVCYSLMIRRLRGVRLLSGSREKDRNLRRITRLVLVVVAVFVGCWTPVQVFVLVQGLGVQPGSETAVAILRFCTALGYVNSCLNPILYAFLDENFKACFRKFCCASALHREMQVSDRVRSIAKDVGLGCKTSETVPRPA

Tests used:
κ/δ2eloop chimera = assay: Binding to second extracellular loop chimera; conditions: compared with wild-type receptors
cloned mouse κ receptor = cloned mouse κ receptor (Mus musculus, UniProt P33534); conditions: read-out: Binding potencies (Ki-nM) κ RECEPTOR [^3H] U-69, 593; PC12 cell membranes
cloned mouse δ receptor = cloned mouse δ receptor (Mus musculus, UniProt P32300); conditions: read-out: Binding potencies (Ki-nM) δ RECEPTOR [^3H] naltrindole; CHO-DG44 cell membranes
cloned rat μ receptor = cloned rat μ receptor (Rattus norvegicus, UniProt P33535); conditions: read-out: Binding potencies (Ki-nM) μ RECEPTOR [^3H] DAMGO; COS-7 cell membranes
[1] = molecular target: wild-type mouse delta opioid receptor (Mus musculus, UniProt P32300); assay: ^3H-naltrindole binding, COS-7 cell membranes, wild-type delta receptor; conditions: read-out: Potencies of Antagonist binding, Wild-type (Ki values in nM); inhibition of ^3H-naltrindole binding
[2] = molecular target: D128N mutant mouse delta opioid receptor (Mus musculus, UniProt P32300, D128N); assay: ^3H-naltrindole binding, COS-7 cell membranes, D128N mutant; conditions: read-out: Potencies of Antagonist binding, D128N mutant (Ki values in nM); inhibition of ^3H-naltrindole binding
[3] = molecular target: H278N mutant mouse delta opioid receptor (Mus musculus, UniProt P32300, H278N); assay: ^3H-naltrindole binding, COS-7 cell membranes, H278N mutant; conditions: read-out: Potencies of Antagonist binding, H278N mutant (Ki values in nM); inhibition of ^3H-naltrindole binding
MOP2 = MOP2 (Mus musculus, UniProt P35377); assay: Binding of opioid radioligands to MOP2 expressed in COS-7 cells

Row | Compound | Binding to the κ/δ2eloop chimera (κ/δ2eloop chimera) | Ki (cloned mouse κ receptor) [nM] | Ki (cloned mouse δ receptor) [nM] | Ki (cloned rat μ receptor) [nM] | Ki [1] [nM] | Ki [2] [nM] | Ki [3] [nM] | Specific binding of radioligand to MOP2 (MOP2)
1 | CN(C(=O)Cc1ccc(Cl)c(Cl)c1)C1CCC2(CCCO2)CC1N1CCCC1 (stereo not shown) | did not bind | 0.036 | > 1000 | 21 |  |  |  | 
2 | CO[C@]12CC[C@@]3(C[C@@H]1C(C)(C)O)[C@H]1Cc4ccc(O)c5c4[C@@]3(CCN1CC1CC1)[C@H]2O5 |  | 0.017 | 0.23 |  | 5 | 16 | 1.4 | did not bind specifically
